Reference: ChEMBL document CHEMBL3997795, “Conjugates of 2,4-Dihydroxybenzoate and Salicylhydroxamate and Lipocations Display Potent Antiparasite Effects by Efficiently Targeting the Trypanosoma brucei and Trypanosoma congolense Mitochondrion” (J Med Chem, 2017)

What was measured:
HEK-293T = assay: Cytostatic activity against HEK293T cells after 30 hrs by resazurin based fluorimetric assay; type: cell-based; conditions: human
[1] = Cytotoxicity against HEK cells up to 50 uM after 30 hrs by resazurin based fluorimetric assay; type: cell-based; conditions: human

With O=[As]c1ccccc1 (configuration not stated) the CC50 (HEK-293T) was 290 nM and the Activity [1] was “Non-Toxic”.
